This is a selection; strong and weak results do not stand in their true shares. Some salts and complexes are drawn in separate pieces, as the source files them; their charges need not balance. Calls of active or inactive are those of the source. Rule as the data show it: active = inhibition above about 60%; inconclusive = no clear call, values can overlap the other calls; inactive = below that.
assay: MLPCN primary screen, SNCA 5' untranslated region (AID 1813); details: alpha-synuclein 5'UTR reporter, inhibitor activity; stronger effect = higher value; tested at 7.5 µM;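 also: H4 neuroglioblastoma cells stably carrying SNCA 5'UTR luciferase fusion; 0% = DMSO wells and 100% = positive control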

Compound | inhibition
CCCOc1ccc(NP(C)(=O)Oc2ccc(Cl)cc2)cc1 (configuration not stated) | inactive: -1.97%
CP(=O)(Nc1ccc(SC(F)(F)F)cc1)Oc1ccccc1 (configuration not stated) | inactive: 9.01%
COc1ccccc1OP(C)(=O)Nc1c(C)cccc1C (configuration not stated) | inactive: -1.46%
CN1CCCCC1COC(=O)C1(O)c2ccccc2CCc2ccccc21 (configuration not stated) | inactive: -11.4%
CCOC(=O)C(CC)C1=NC(C)(C)Cc2ccccc21.O=[N+]([O-])c1cc([N+](=O)[O-])c(O)c([N+](=O)[O-])c1 (configuration not stated) | inactive: -11.7%
O=[N+]([O-])c1cc([N+](=O)[O-])c(Nc2nnnn2CCO)c([N+](=O)[O-])c1 | inactive: -5.94%
O=[N+]([O-])c1cc([N+](=O)[O-])c(-c2cnn(-c3ccccc3)c2)c([N+](=O)[O-])c1 | inactive: 1.94%
O=[N+]([O-])c1cc([N+](=O)[O-])c(-n2nnc3ccccc32)c([N+](=O)[O-])c1 | inactive: -8.58%
Cc1ccc(C)c(NP(C)(=O)Oc2ccccc2)c1 (configuration not stated) | inactive: -9.77%
Cc1cc(C)cc(OP(C)(=O)Nc2ccccn2)c1 (configuration not stated) | inactive: 18.8%
CP(=O)(Nc1cccc(Br)c1)Oc1ccccc1 (configuration not stated) | inactive: -3.88%
CCOC(=O)c1ccc(NP(C)(=O)Oc2cc(C)cc(C)c2)cc1 (configuration not stated) | inactive: 12.2%
Cc1cc(C)cc(OP(C)(=O)Nc2ccc(C)cc2C)c1 (configuration not stated) | inactive: 18%
COc1ccccc1OP(C)(=O)Nc1cccc(Br)c1 (configuration not stated) | inactive: 8.92%
CC1=NCCc2c1[nH]c1ccccc21.O=[N+]([O-])c1cc([N+](=O)[O-])c(O)c([N+](=O)[O-])c1 | inactive: -71.5%
O=C(O)c1cccc(Nc2c([N+](=O)[O-])cc([N+](=O)[O-])cc2[N+](=O)[O-])c1 | inactive: 11.9%
Cc1cc(C)cc(OP(C)(N)=O)c1 (configuration not stated) | inactive: 11.1%
COc1ccc(OP(C)(=O)Nc2cccc(F)c2)cc1 (configuration not stated) | inactive: 6.7%
COc1ccccc1OP(C)(=O)Nc1cc(Cl)ccc1C (configuration not stated) | inactive: 15%
Cc1ccc(NP(C)(=O)Oc2ccccc2)c(C)c1 (configuration not stated) | inactive: 10.5%
COc1ccccc1OP(C)(=O)Nc1ccc(C)cc1 (configuration not stated) | inactive: 3.58%
CCOC(=O)c1ccc(NP(C)(=O)Oc2ccccc2)cc1 (configuration not stated) | inactive: -12.6%

Compound | inhibition
O=[N+]([O-])c1ccc2c(c1)C=Nc1ccccc1O2 | inactive: -25.8%
Cc1cccc(C)c1OP(C)(N)=O (configuration not stated) | inactive: 16.8%
CC(C)(C)c1ccc(OP(C)(=O)Nc2ccc(SC(F)(F)F)cc2)cc1 (configuration not stated) | inactive: 8.03%
O=[N+]([O-])c1cc([N+](=O)[O-])c(Nc2cccnc2)c([N+](=O)[O-])c1 | inactive: -3.2%
CCN(CC)CCCOC(=O)C(O)(c1ccccc1)c1ccccc1 | inactive: -19%
CP(=O)(Nc1ccccn1)Oc1ccc(Cl)cc1 (configuration not stated) | inactive: 15.9%
CCOC(=O)c1ccc(NP(C)(=O)Oc2ccc(OC)cc2)cc1 (configuration not stated) | inactive: -8.84%
O=[N+]([O-])c1cc([N+](=O)[O-])c(O)c([N+](=O)[O-])c1.c1ccc(Oc2ccncc2)cc1 | inactive: 1.62%
CCOP(C)(=S)SCC(=O)NC(C)C(=O)O (configuration not stated) | inactive: 0.155%
Cc1cc(C)cc(OP(C)(=O)Nc2ccc(SC(F)(F)F)cc2)c1 (configuration not stated) | inactive: 13.9%
CP(=O)(NC(=O)Nc1ccccc1)Oc1ccccc1 (configuration not stated) | inactive: -18.9%
CCc1ccc(OP(C)(=O)N2CCN(c3ccc([N+](=O)[O-])cc3)CC2)cc1 (configuration not stated) | active: 89.1%
CP(=O)(Oc1ccccc1)OC(c1ccccc1)C(F)(F)F (configuration not stated) | inactive: 22.5%
Cc1cccc(C)c1OP(C)(=O)Nc1ccc(SC(F)(F)F)cc1 (configuration not stated) | inactive: 15.3%
CP(=O)(Nc1ccc(SC(F)(F)F)cc1)Oc1ccc(Cl)cc1 (configuration not stated) | inactive: 0.412%
CP(=O)(Nc1ccccc1Br)Oc1ccccc1 (configuration not stated) | inactive: 13.4%
COc1ccccc1OP(C)(=O)Nc1ccccc1 (configuration not stated) | inactive: 15.7%
CP(=S)(Nn1cnnc1)Oc1ccccc1 (configuration not stated) | inactive: 10.2%
CCOC(=O)c1ccc(NP(C)(=O)Oc2ccc(Cl)cc2)cc1 (configuration not stated) | inactive: 11.7%
CP(=O)(OC12CC3CC(CC(C3)C1)C2)OC12CC3CC(CC(C3)C1)C2 | inactive: 22.5%
Nc1ccc2c(ccc3cccnc32)n1.O=[N+]([O-])c1cc([N+](=O)[O-])c(O)c([N+](=O)[O-])c1 | inactive: -23.9%
CN(C)C(=O)c1c([N+](=O)[O-])cc([N+](=O)[O-])cc1[N+](=O)[O-] | inactive: -44.7%

Compound | inhibition
COc1ccccc1OP(C)(=O)Nc1ccccc1Br (configuration not stated) | inactive: 4.55%
CC(C)(C)c1ccc(OP(C)(=O)O)cc1 | inactive: 11.4%
CP(=O)(Nc1ccc(Cl)cc1)Oc1ccc(F)cc1 (configuration not stated) | inactive: 10.3%
O=C(OCCCN1CCCC1)C(O)(c1ccccc1)C1CCCCC1 (configuration not stated) | inactive: -16.5%
COc1ccccc1OP(C)(=O)Nc1c(C)n(C)n(-c2ccccc2)c1=O (configuration not stated) | inactive: 11.2%
CCc1ccc(OP(C)(=O)Nc2cccnc2)cc1 (configuration not stated) | inactive: -9.72%
CP(=O)(Oc1ccccc1)N1CCOC1=O (configuration not stated) | inactive: 16.8%
COc1ccc(OP(C)(=O)Nc2ccc(Br)cc2)cc1 (configuration not stated) | inactive: 13.1%
CCN(CC)CC(O)COC(=O)C(O)(c1ccccc1)C1CCCCC1 (configuration not stated) | inactive: -12.1%
COc1ccccc1OP(C)(=O)Nc1ccc(C)cc1C (configuration not stated) | inactive: 22.6%
CP(=O)(Nc1ccccn1)Oc1ccccc1 (configuration not stated) | inactive: 4.77%
CCc1ccc(OP(C)(=O)O)cc1 | inactive: -4.76%
Cc1c(NP(C)(=O)Oc2ccc(C(C)C)cc2)c(=O)n(-c2ccccc2)n1C (configuration not stated) | inactive: 0.526%
COc1ccc(OP(C)(=O)Nc2ccccn2)cc1 (configuration not stated) | inactive: 26.1%
CN(C)CCOC(=O)C(O)(c1ccccc1)C1CCCC1 (configuration not stated) | inactive: -13.7%
COc1ccccc1OP(C)(=O)Nc1ccc(Br)cc1 (configuration not stated) | inactive: 5.85%
CP(=O)(Nc1ccc(Cl)cc1Cl)Oc1ccccc1 (configuration not stated) | inactive: 11.7%
CP(=O)(OCCOc1ccccc1)OCCOc1ccccc1 | inactive: -12.9%
Cc1nc2ccc3ccccc3c2o1.O=[N+]([O-])c1cc([N+](=O)[O-])c(O)c([N+](=O)[O-])c1 | inactive: -99.6%
COc1ccccc1OP(C)(=O)Nc1ccc(C)c(C)c1 (configuration not stated) | inactive: 22.1%
COc1ccc(OP(C)(=O)Nc2ccccc2Br)cc1 (configuration not stated) | inactive: -24.7%
Cc1cc(C)cc(OP(C)(=O)Nc2cccc(C(F)(F)F)c2)c1 (configuration not stated) | inactive: 14%

Compound | inhibition
CP(=O)(Nc1ccccc1)Oc1ccc(F)cc1 (configuration not stated) | inactive: 6.66%
CCCCCOc1ccc(NP(C)(=O)Oc2ccc(Cl)cc2Cl)cc1 (configuration not stated) | inactive: 33%
O=[N+]([O-])c1cc([N+](=O)[O-])c(OC2CCCCC2O)c([N+](=O)[O-])c1 (configuration not stated) | inactive: 5.46%
CCN(CC)CCCOC(=O)C(O)(c1ccccc1)C1CCCCC1 (configuration not stated) | inactive: 0.354%
CCOC(=O)c1ccc(NP(C)(=O)Oc2ccc(F)cc2)cc1 (configuration not stated) | inactive: -1.62%
COc1ccc(OP(C)(=O)Nc2ccc(SC(F)(F)F)cc2)cc1 (configuration not stated) | inactive: -10.2%
COc1ccc2c(c1O)-c1c(O)c(OC)cc3c1[C@H](C2)[N+](C)(C)CC3.O=[N+]([O-])c1cc([N+](=O)[O-])c([O-])c([N+](=O)[O-])c1[O-] | inactive: -3.32%
O=C(OC1CN2CCC1CC2)c1ccc([N+](=O)[O-])cc1 (configuration not stated) | inactive: 18.4%
O=C(OCCN1CCN(CCOCc2ccccc2)CC1)C(O)(c1ccccc1)c1ccccc1 | inactive: -7.44%
CP(=O)(Nc1ccccc1F)Oc1ccccc1 (configuration not stated) | inactive: -7.34%
CC(C)c1ccc(OP(C)(=O)Nc2ccc(SC(F)(F)F)cc2)cc1 (configuration not stated) | inactive: 19.3%
Cc1ccccc1NP(C)(=O)Nc1ccccc1C | inactive: 22%
CP(=O)(Nc1ccc2c(c1)OCCO2)Oc1ccccc1 (configuration not stated) | inactive: -27.1%
CCOP(C)(=S)SCC(=O)NC(C)(CC)C(=O)O (configuration not stated) | inactive: 10.2%
CP(=O)(Nc1ccc(SC(F)(F)F)cc1)Oc1ccc(F)cc1 (configuration not stated) | inactive: -25.5%
O=[N+]([O-])c1ccc(OP2(=O)COCCO2)cc1 (configuration not stated) | inactive: 8.74%
O=[N+]([O-])c1cc([N+](=O)[O-])c(NCC2CCS(=O)(=O)C2)c([N+](=O)[O-])c1 (configuration not stated) | inactive: -34.7%
Cc1cc(-c2cccc3ccccc23)c(C)cn1.O=[N+]([O-])c1cc([N+](=O)[O-])c(O)c([N+](=O)[O-])c1 | inactive: 13.1%
CN(C)CCOC(=O)C(O)(c1ccccc1)C1CCCCC1 (configuration not stated) | inactive: 5.02%
COc1ccc(NP(C)(=O)Oc2ccccc2OC)cc1 (configuration not stated) | inactive: -4.24%
COc1ccc(OP(C)(=O)Nc2cccc(Br)c2)cc1 (configuration not stated) | inactive: -10.8%
